Consider 1 compound from patent US20050137215A1, “[C]-fused bicyclic proline derivatives and their use for treating arthritic conditions” (priority 2003, published 2005).

Chains of the proteins cited; added tags and fusions are not shown. Residues count along the entry.
UniProt G3GRU9, 1-506: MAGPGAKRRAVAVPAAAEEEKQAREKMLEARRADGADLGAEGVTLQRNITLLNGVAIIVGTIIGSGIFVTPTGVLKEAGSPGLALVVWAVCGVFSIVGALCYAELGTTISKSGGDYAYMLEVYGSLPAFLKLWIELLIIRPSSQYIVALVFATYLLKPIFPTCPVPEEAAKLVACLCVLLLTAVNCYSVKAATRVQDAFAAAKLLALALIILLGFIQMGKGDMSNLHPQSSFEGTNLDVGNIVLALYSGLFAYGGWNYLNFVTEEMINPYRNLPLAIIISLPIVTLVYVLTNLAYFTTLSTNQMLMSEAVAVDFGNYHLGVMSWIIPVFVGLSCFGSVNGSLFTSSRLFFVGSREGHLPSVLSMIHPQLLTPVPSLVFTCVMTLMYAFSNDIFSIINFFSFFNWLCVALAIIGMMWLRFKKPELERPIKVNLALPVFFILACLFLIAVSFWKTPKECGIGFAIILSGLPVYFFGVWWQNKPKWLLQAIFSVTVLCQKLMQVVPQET
UniProt A0A9J7CH39, 1-533 partner: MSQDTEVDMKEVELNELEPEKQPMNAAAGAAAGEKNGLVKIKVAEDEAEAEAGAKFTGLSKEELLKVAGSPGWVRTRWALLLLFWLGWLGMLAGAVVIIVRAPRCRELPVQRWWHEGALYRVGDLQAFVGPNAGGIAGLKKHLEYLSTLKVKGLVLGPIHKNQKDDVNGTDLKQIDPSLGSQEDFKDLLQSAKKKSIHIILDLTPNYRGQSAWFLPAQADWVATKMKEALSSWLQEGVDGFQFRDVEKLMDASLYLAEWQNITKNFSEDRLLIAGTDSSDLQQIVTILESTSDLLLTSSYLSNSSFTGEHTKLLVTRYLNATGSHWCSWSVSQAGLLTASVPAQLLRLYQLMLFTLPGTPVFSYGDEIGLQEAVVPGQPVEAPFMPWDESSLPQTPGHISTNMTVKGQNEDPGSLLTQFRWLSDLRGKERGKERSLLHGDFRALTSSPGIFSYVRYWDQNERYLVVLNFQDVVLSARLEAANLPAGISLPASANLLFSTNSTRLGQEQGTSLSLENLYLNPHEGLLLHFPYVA

A value given as a limit tells only on which side of the number the result lay.

One assay deals with leucine transport system (Cricetulus griseus, UniProt G3GRU9). The experiment in a line: Leucine transport system binding assay (LTSBA), [3H]leucine uptake in CHO K1 cells. Type of assay: cell-based. The note with it: read-out: LTS IC50, leucine transport system binding, inhibition of saturable [3H]leucine uptake, tested form: HCl. How it is done:
Leucine Transport System Binding Assay (“LTSBA”) The sodium-containing buffer for transport assay was phosphate buffered saline (“PBS”) consisting of 137 mM NaCl, 2.7 mM KCl, 10.6 mM Na2HPO4, and 1.5 mM KH2PO4. The sodium-free buffer had equimolar amounts of choline chloride and choline phosphate in place of NaCl and […], respectively. This buffer is referred to as PBC. Prior to use, both PBS and PBC buffers (pH 7.4) were supplemented with 5.6 mM D-glucose, 0.49 mM MgCl2, and 0.9 mM CaCl2 (GMC). For cultured monolayer cells (in general, CHO K1 cells), the cluster tray transport assay was used as described previously (Su et al, J. Neurochem., 1995; 64:2125-2131, and references therein). […] The initial transport rates were determined by measuring uptake of tracer [3H] […] Secondary analysis of the initial velocity kinetic curves were determined by non linear regression analysis, using the equation: log V=log {[Vmax.S/(Km+S)]+P.[S]} where V, S, Vmax, and Km have their conventional meanings, and P represents the first order rate constant describing the nonsaturable uptake. An IC50 was determined as percentage inhibition of saturable leucine uptake. […] They were calculated by subtracting the corresponding substrate uptake rates in the presence of 10 mM excess unlabeled leucine from the total uptake rates. […] The efflux was calculated as percentage of the intracellular labeled substrate at zero time. […]

Assay [1] relates to Monosodium Iodoacetate-Induced Osteoarthritis in Rat Model of Joint Cartilage Damage. Kind of assay: Monosodium iodoacetate-induced osteoarthritis in rat (MIA Rat), loss of hind limb joint function. The note with it: male Wistar rats, MIA 1 mg/joint, 10 mg/kg/day subcutaneously via osmotic pump, tested form: HCl. The source says:
Monosodium Iodoacetate-Induced Osteoarthritis in Rat Model of Joint Cartilage Damage (“MIA Rat”):
One end result of the induction of osteoarthritis in this model, as determined by histologic analysis, is the development of an osteoarthritic condition within the affected joint, as characterized by the loss of Toluidine blue staining and formation of osteophytes. […]
Generally, In the MIA Rat model on Day 0, the hind-paw weight differential between the right arthritic joint and the left healthy joint of male Wistar rats (150 g) are determined with an incapacitance tester, model 2KG (Linton Instrumentation, Norfolk, United Kingdom). […]
Administration of an invention compound in this model is optionally by oral administration or by intravenous administration via an osmotic pump. After 7 and 14 days for a two week study, or 7, 14, and 28 days for a four week study, the hind-paw weight distribution is again determined. […] Percent inhibition of a change in hind paw joint function is calculated as the percent change in hind-paw weight distribution for treated animals versus control animals. […]

For `O=C(O)C1NCC2CC(O)C(O)CC21` (single isomer, unassigned) [N3], at leucine transport system, the IC50 was over 8.3 mM. Besides, in assay [1], the “% I @ 10 mg/kg/day (%) (± SEM): inhibition of loss of hind limb joint function in MIA at Day 14” value came out at 27%.

A word on the IC50: it is the midpoint of a concentration-inhibition curve.
